Assay results from US12473291B2 (priority 2019, dated 2025).

How the values were obtained:
[1] = system: KM mice; assay: Disappearance of righting reflex in mice after tail vein injection; format: in vivo
[2] = system: SD rats; assay: Disappearance of righting reflex in rats after tail vein injection; format: in vivo
[3] = single tail vein injection at 2×ED50, time from recovery of righting reflex to free crawling

Structure (SMILES): CCC(CC)OC(=O)OC(OC(=O)CC[C@@H]1N=C(c2ccccn2)c2cc(Cl)c(OC(F)(F)F)cc2-n2c(C)cnc21)C1CC(F)C(CC)C1 (stereo partly drawn) [Example 68, (3-Ethyl-4-fluorocyclopentyl) (((pentanyl-3-yloxy)carbonyl)oxy)methyl 3-((4S)-8-chloro-1-methyl-6-(pyridine-2-yl)-9-(trifluoromethoxy)-4H-benzo[f]imidazo[1,2-a][1,4]diazapin-4-yl) propionate L-aspartate]
- 2ED50 recovery time [1, 3]: 2.49 min
- Quality of recovery ([1]; tail vein injection): ++ (“++” means 1-3 min)
- 2ED50 recovery time [2, 3]: 2.18 min
- Quality of recovery ([2]; tail vein injection): ++ (“++” means 1-3 min)
